# Test results taken from paper PMC10899660, “Global fungal-host interactome mapping identifies host targets of candidalysin” (Nature Communications, 2024).
# Tests used:
# FaDu cells = assay: qRT-PCR of DNA damage repair and nucleotide excision repair-related genes, FaDu cells; type: cell-based; details: for Relative expression, 53BP1: 53BP1, 4h; for Relative expression, CCNH: 4h; for Relative expression, Ercc1: Ercc1, 4h; for Relative expression, Ercc4: Ercc4, 4h; for Relative expression, Ercc5: Ercc5, 4h; for transcription of CCNH, ERCC1, ERCC4/XPF, ERCC5/XPG and 53BP1: FaDu, 10 µM
# Method: To determine the gene expression patterns of FaDu and A549 cells, candidalysin-treated cells were washed with pre-warmed PBS and collected after addition of RNAlater (Beyotime, # R0118-100ml) before RNA isolation with a RNeasy Mini Kit (Qiagen, #74106). After determination of the purity and concentration of RNA by Nanodrop, the cDNA was obtained by a PrimeScript™ RT reagent Kit (Perfect Real Time) (Takara, #RR037A). Real-time PCR was then performed with 2x SYBR Green qPCR Master Mix (Bimake, # B21203) in a Biorad CFX96 thermocycler (CFX96 Touch Real-Time PCR Detection System). Primers used are as follows: ERCC1-internal-F (5′-[…]-3′) and ERCC1-internal-R (5′-[…]-3′), ERCC4-internal-F (5′-[…]-3′) and ERCC4-internal-R (5′-[…] −3′), ERCC5-internal-F (5′-[…]-3′) and ERCC5-internal-R (5′-[…]-3′), 53BP1-internal-F (5′-[…]-3′) and 53BP1-internal-R (5′-[…]-3′), β-actin-internal-F (5′-[…]-3′) and β-actin-internal-R (5′-[…]-3′), CCNH-internal-F (5′-[…]-3′) and CCNH-internal-R (5′-[…]-3′), IL-1α-internal-F (5′-[…]-3’) and IL-1α-internal-R (5′-[…]-3′), IL-6-internal-F (5′-[…]-3′) and IL-6-internal-R (5′-[…]-3′), RHOA-internal-F (5′-[…]-3′) and RHOA-internal-R (5′- […]-3′).
# mouse tongue tissue = assay: Histopathology (H&E, PAS) and immunohistochemistry (H-Score of CCNH and γ-H2AX) of tongue tissue; type: in vivo, BALB/c mice; details: 70 μM candidalysin swab 75 min, Day 5
# Method: After anesthetization (Day 1), mice were infected with WT, ece1Δ/Δ, ece1Δ/Δ+ECE1 and ece1Δ/Δ+ECE1^Δ184-279 C. albicans, or treated with 70 μM of candidalysin or PBS (Ctrl). After 5 days (Day 5), mice were euthanized. The tongue was excised and divided into two halves longitudinally for fungal load quantification and immunohistochemistry assay. Food-burial seeking tests were performed on the Day 0 and Day 5. b The colony forming units (CFUs) per gram of tongue tissue from mice colonized with WT, ece1Δ/Δ, ece1Δ/Δ+ECE1, and ece1Δ/Δ+ECE1^Δ184-279 strains of C. albicans, and mice challenged with candidalysin or treated with PBS (Ctrl) (n = 6 mice). Data was shown as median with interquartile range. The P value was determined by one-way ANOVA with Tukey’s post-hoc tests. […] The P value was determined by one-way ANOVA with Tukey’s post-hoc tests. *P = 0.0243; ****P < 0.0001. d Histopathology and immunohistochemistry assay of tongue tissues. Pathology and fungal infection in tongue tissues were assessed by H&E and PAS staining, respectively. The expression of CCNH and γ-H2AX was assessed in situ by immunohistochemistry assay (IHC). […] Images are from the same tissues. e Quantification of CCNH and γ-H2AX expression in immunohistochemistry assay (n = 6 mice). […]
# epithelial cells = details: ref [18],[19]; cited from earlier work
# Text: Candidalysin plays a vital role in fungal infection. […] But the direct human target of candidalysin remains unknown, which requires an overall understanding of the interactome between candidalysin and host. In this study, we performed a high-throughput enhanced yeast two-hybrid (HT-eY2H) ass ...
compound,measurement,setting,value
CC[C@H](C)[C@H](NC(=O)CNC(=O)[C@H](CCSC)NC(=O)[C@@H](NC(=O)[C@@H](NC(=O)CNC(=O)[C@@H](NC(=O)[C@@H](NC(=O)[C@@H](N)CO)[C@@H](C)CC)[C@@H](C)CC)[C@@H](C)CC)[C@@H](C)CC)C(=O)N[C@@H](CC(C)C)C(=O)NCC(=O)N[C@@H](CC(N)=O)C(=O)N[C@H](C(=O)N1CCC[C@H]1C(=O)N[C@@H](CCC(N)=O)C(=O)N[C@H](C(=O)N[C@H](C(=O)N[C@@H](CCC(N)=O)C(=O)N[C@H](C(=O)N[C@H](C(=O)N[C@@H](CCSC)C(=O)N[C@@H](CO)C(=O)N[C@H](C(=O)N[C@H](C(=O)N[C@@H](CCCCN)C(=O)N[C@@H](C)C(=O)N[C@@H](Cc1ccccc1)C(=O)N[C@@H](CCCCN)C(=O)NCC(=O)N[C@@H](CC(N)=O)C(=O)N[C@@H](CCCCN)C(=O)O)C(C)C)[C@@H](C)CC)[C@@H](C)CC)[C@@H](C)CC)[C@@H](C)CC)C(C)C)[C@@H](C)CC [Ece1-III],"Relative expression, 53BP1",FaDu cells; replicate 1,1.705
same,"Relative expression, 53BP1",FaDu cells; replicate 2,1.7025
same,"Relative expression, 53BP1",FaDu cells; replicate 3,1.775
same,"Relative expression, CCNH",FaDu cells; replicate 1,2.9884
same,"Relative expression, CCNH",FaDu cells; replicate 2,2.6626
same,"Relative expression, CCNH",FaDu cells; replicate 3,2.808
same,"Relative expression, Ercc1",FaDu cells; replicate 1,15.6441
same,"Relative expression, Ercc1",FaDu cells; replicate 2,14.2201
same,"Relative expression, Ercc1",FaDu cells; replicate 3,15.2277
same,"Relative expression, Ercc4",FaDu cells; replicate 1,8.4146
same,"Relative expression, Ercc4",FaDu cells; replicate 2,8.1376
same,"Relative expression, Ercc4",FaDu cells; replicate 3,8.5305
same,"Relative expression, Ercc5",FaDu cells; replicate 1,5.6196
same,"Relative expression, Ercc5",FaDu cells; replicate 2,5.9126
same,"Relative expression, Ercc5",FaDu cells; replicate 3,5.7838
same,"transcription of CCNH, ERCC1, ERCC4/XPF, ERCC5/XPG and 53BP1",FaDu cells; 4 h,upregulated
same,"transcription of CCNH, ERCC1, ERCC4/XPF, ERCC5/XPG and 53BP1",FaDu cells; 24 h,transcriptionally suppressed
same,CCNH and γ-H2AX expression in tongue tissue (IHC),mouse tongue tissue,increased expression of CCNH and γ-H2AX
same,cell damage and epithelial immunity,epithelial cells,"cell damage, calcium influx, membrane destabilization via membrane intercalation, permeabilization and pore formation"
